The test system of the data set is human lung cancer NCI-H1581 transplanted tumor. Kind of data set: Tumor growth inhibition in tumor-bearing mice (subcutaneously transplanted tumor). It is filed as in vivo, BALB/cA nude mice. Here is the method:
Before using, the compound was diluted with 5% Tween80 in normal saline to the desired concentration (light yellow suspension), and was prepared once a week.
The positive control drug: AZD4547 (batch number: Lot: S0902A) was a white powder, and stored at −20° C. in the dark. Before using, the compound was diluted with 1% Tween 80 in normal saline to the desired concentration (white suspension), and was prepared once a week.
Animals: BALB/cA nude mice, male, 3-4 weeks old, produced by Shanghai Institute of Materia Medica, Chinese Academy of Sciences, quality certificate number No. 311613700000120, production license number: SCXK (Shanghai) 2013-0017. Shanghai Drug Administration License No.: SYXK (Shanghai) 2013-0049, the number of animals in each group: 12 in the solvent control group and 6 in the drug-administration group.
Human lung cancer NCI-H1581 cell line (ATCC, Cat. No. CRL-5878). The cell strain was inoculated in the right axilla of the nude mice, and the amount of cells inoculated was 5×10^6/animal to form transplanted tumor, and passaged in vivo in nude mice by 1 generation before use.
The tumor tissue in the vigorous growth period was cut into 1.5 mm^3, and inoculated subcutaneously in the right axilla of the nude mice under aseptic conditions. The diameter of the subcutaneously transplanted in a nude mice was measured with a vernier caliper, and the animals were randomly grouped when the average volume of tumors was about 220 mm^3. […] The solvent control group was given an equal amount of normal saline. The diameter of the transplanted tumor was measured twice a week during the entire experiment, and the body weights of the mice were weighed. The calculation formula of tumor volume (TV) is: TV=1/2×a×b2, where a and b respectively represent the length and width of the tumor. The relative tumor volume (RTV) was calculated based on the measured results and the formula was: RTV=Vt/V0. Where V0 is the tumor volume measured before grouping and dosing (d0), and Vt is the tumor volume at each measurement. […]

Take `Cc1c(-c2c3c(N)n[nH]c(=O)c3nn2-c2ccc(NC(=O)/C=C/CN(C)C)cc2)oc2ccc(Cl)cc12` [Compound A26, (2E)-N-{4-[4-amino-3-(5-chloro-3-methyl-1-benzofuran-2-yl)-7-carbonyl-6,7-dihydro-2H-pyrazolo[3,4-d]pyridazin-2-yl]phenyl}-4-(dimethylamino)but-2-enamide]: the “body weight (g) d13” value (A26 50 mg/kg ip qd/13) stood at 19.9 g.

Regarding AZD4547 [reference compound], the “body weight (g) d0” value (AZD4547 12.5 mg/kg po qd/13, d0) amounted to 17.3 g. Moreover, under “AZD4547 12.5 mg/kg po qd/13”, the “body weight (g) d13” value worked out at 19.9 g.

These data come from patent publication US20190135818A1 (SHANGHAI INSTITUTE OF MATERIA MEDICA, CHINESE ACADEMY OF …, priority 2016, published 2019).
